Measurements as given in US7087035B2 (priority 1999, dated 2006).
Like-named read-outs stand apart in the source and are kept apart here.

Details: for average flux (mean±sem): 100 μA/cm^2, extrapolated using pharmacokinetic analysis

insulin
plasma insulin concentrations (effect of skin stretching, 100 μA/cm^2 for 2 hours, radioimmunoassay, FIG. 28): significant enhancement effect of skin stretching | average flux (mean±sem) (stretched group): 53±13 μg/cm^2h | average flux (mean±sem) (unstretched group): 26±9 μg/cm^2h | amount of insulin delivered transdermally (with skin stretching relative to no stretching, FIG. 28): doubled
